# Source: paper PMC11528023, “Transport mechanism and structural pharmacology of human urate transporter URAT1” (Cell Research, 2024)
# By UniProt entry, the sequences of proteins in these tests, tags left out. Chains listed by the source or under a name are the forms on record and can include a tag or linker.
# UniProt Q96S37, with tags, fused parts or gaps with the stated changes: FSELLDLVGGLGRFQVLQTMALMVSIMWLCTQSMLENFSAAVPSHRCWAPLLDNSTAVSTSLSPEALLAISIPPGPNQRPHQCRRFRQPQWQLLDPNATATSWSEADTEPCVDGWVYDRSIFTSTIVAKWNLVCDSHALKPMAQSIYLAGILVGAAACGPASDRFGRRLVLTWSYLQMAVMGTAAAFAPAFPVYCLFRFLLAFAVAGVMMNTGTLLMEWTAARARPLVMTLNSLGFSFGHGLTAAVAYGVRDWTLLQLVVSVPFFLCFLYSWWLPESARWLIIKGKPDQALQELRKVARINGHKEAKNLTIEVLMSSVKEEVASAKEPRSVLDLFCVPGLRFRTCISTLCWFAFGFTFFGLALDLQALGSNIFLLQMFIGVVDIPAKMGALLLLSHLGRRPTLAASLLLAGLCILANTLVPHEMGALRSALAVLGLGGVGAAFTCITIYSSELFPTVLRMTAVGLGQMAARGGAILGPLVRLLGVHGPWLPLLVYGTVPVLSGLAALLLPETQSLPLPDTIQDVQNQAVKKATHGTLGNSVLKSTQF
# Tests used:
# Type in all cases: cell-based
# URAT1EM = molecular target: T1, URAT1EM (Homo sapiens, UniProt Q96S37, A280P/A304R/A323S/A335R/D313K/DEL311-312/DEL60-62/G295A/G309E/G331A/G338L/G65T/I63V/INS307H/L287I/L292P/L321M/L328V/L337V/L341F/L64S/M324V/M330S/M343V/P317I/P333E/Q332K/R291K/R301K/R325K/R342C/S329A/T288I/T289K/T314N/T339D/W294Q/W300R); test: 14C-urate uptake in HEK293 cells expressing URAT1EM (cryo-EM construct)
# T1 construct: human URAT1 (residues 3–553), a (GGGGS)3 linker, and C-terminal DARPinoff7; expressed in transfected cells; host or cells: HEK293 cells (ATCC, CRL-3216), transient transfection
# URAT1WT [1] = molecular target: T2, URAT1WT (Homo sapiens, UniProt Q96S37); test: 14C-urate uptake inhibition in HEK293 cells expressing WT URAT1; settings: IC50 of the WT URAT1 (comparator for F365Y), inhibition of 14C-urate uptake, Fig. 5g comparator as printed in text
# URAT1WT [2] = molecular target: T2, URAT1WT; test: as above; set-up: expressed in transfected cells; host or cells: HEK293 cells (ATCC, CRL-3216), transient transfection with Lipofectamine 3000; settings: inhibition of 14C-urate uptake, HEK293 cells, 400 µM urate, 20 min, 37 °C
structure (smiles),measurement,setting,value
O=C(O)CSc1nnc(Br)n1-c1ccc(C2CC2)c2ccccc12 [lesinurad],IC50,URAT1EM,39 µM
same,IC50,URAT1WT [1],39 µM
same,IC50,URAT1WT [2],66.3 µM
